GIV Gai3 FP – blocks GIV peptide binding to rat Galpha-i3. P08753. Galpha-i3/FITC-GIV peptide fluorescence polarization, 90 min; stronger effect = lower value; scaled: aluminum fluoride 0%, vehicle 100%. percent of control (FP), % (concentration not given with the values). hit rate 0.42% among 210,000. AID 1224905;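 active means replicate mean at 85% of control or lower, very high polarization wells dropped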;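 further: wells of about 15 µL received 100 nL stock; the first replicate is given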
* marks the source's active call; other numbers are inactive results. This excerpt belongs to a sample that is enriched for hits.

O=C1/C(=C/C2=Cc3ccccc3OC2)SC(=S)N1C1CCS(=O)(=O)C1 (stereo unspecified)
  GIV Gai3 FP: -35*
O=C1/C(=C/c2cn(-c3ccccc3)nc2-c2ccc(Cl)cc2)SC(=S)N1C1CCS(=O)(=O)C1 (stereo unspecified)
  GIV Gai3 FP: 105
COc1cc(C)c(C(=O)O)c(OC)n1
  GIV Gai3 FP: 106
CCOc1ccc(Oc2nc(C)nc3sc(C)c(C)c23)cc1
  GIV Gai3 FP: 106
O=C1/C(=C/c2cc([N+](=O)[O-])cc(Br)c2O)SC(=S)N1c1ccc([N+](=O)[O-])cc1
  GIV Gai3 FP: 106
O=C(O)CN1C(=O)/C(=C\c2cc([N+](=O)[O-])cc(Br)c2O)SC1=S
  GIV Gai3 FP: -59*
O=C(O)CN1C(=O)/C(=C\c2ccc(-c3ccc([N+](=O)[O-])cc3Cl)o2)SC1=S
  GIV Gai3 FP: 104
Cn1c(O)c(C2=NNC(c3ccc4c(c3)OCO4)C2)c(=O)[nH]c1=O (stereo unspecified)
  GIV Gai3 FP: 98
O=[N+]([O-])c1ccc(O)c(N=Cc2sc3ccccc3c2O)c1
  GIV Gai3 FP: 100
Cc1ccccc1N=Cc1sc2ccccc2c1O
  GIV Gai3 FP: 157
COc1ccccc1N=Cc1sc2ccccc2c1O
  GIV Gai3 FP: -53*
CCCCCN=Cc1sc2ccc(OCC)cc2c1O
  GIV Gai3 FP: 104
CCOc1ccc(N=Cc2sc3ccccc3c2O)cc1
  GIV Gai3 FP: -15*
CCCCCCCCCN=Cc1sc2ccc(OCC)cc2c1O
  GIV Gai3 FP: 107
CCCC(=O)N1c2ccccc2-c2c(ssc2=S)C1(C)C
  GIV Gai3 FP: 105

Some of the entries above in another layout:
GIV Gai3 FP,smiles
105,O=C1/C(=C/c2cn(-c3ccccc3)nc2-c2ccc(Cl)cc2)SC(=S)N1C1CCS(=O)(=O)C1 (stereo unspecified)
100,O=[N+]([O-])c1ccc(O)c(N=Cc2sc3ccccc3c2O)c1
98,Cn1c(O)c(C2=NNC(c3ccc4c(c3)OCO4)C2)c(=O)[nH]c1=O (stereo unspecified)
106,O=C1/C(=C/c2cc([N+](=O)[O-])cc(Br)c2O)SC(=S)N1c1ccc([N+](=O)[O-])cc1

New compounds follow
N#Cc1ccc(-c2c(-n3cccc3)oc(-c3cccs3)c2C#N)cc1
  GIV Gai3 FP: 108
CCOC(=O)C1CCN(C(=O)CSc2nccc3c2ccn3Cc2ccc(OC)cc2)CC1
  GIV Gai3 FP: 106
CCc1ccc(CC)c(S(N)(=O)=O)c1
  GIV Gai3 FP: 102
N#CC1=C(N)C(C#N)(C#N)C(c2ccc(Br)cc2)C2CN(Cc3ccccc3)CC=C12 (stereo unspecified)
  GIV Gai3 FP: 165
CC(=O)N1CC=C2C(C#N)=C(N)C(C#N)(C#N)C(Cc3ccccc3)C2C1 (stereo unspecified)
  GIV Gai3 FP: 101
CN1CC=C2C(C#N)=C(N)C(C#N)(C#N)C(CCc3ccccc3)C2C1 (stereo unspecified)
  GIV Gai3 FP: -8.8*
N#CC1=C(N)C(C#N)(C#N)C(c2cccc3ccccc23)C2CN(Cc3ccccc3)CC=C12 (stereo unspecified)
  GIV Gai3 FP: 184
CC(C)CC1C2CN(Cc3ccccc3)CC=C2C(C#N)=C(N)C1(C#N)C#N (stereo unspecified)
  GIV Gai3 FP: 121
CCN1CC=C2C(C#N)=C(N)C(C#N)(C#N)C(c3ccccc3OC)C2C1 (stereo unspecified)
  GIV Gai3 FP: 118
CCOC(=O)N1CC=C2C(C#N)=C(N)C(C#N)(C#N)C(CC)C2C1 (stereo unspecified)
  GIV Gai3 FP: 126
CCCC1C2CN(Cc3ccccc3)CC=C2C(C#N)=C(N)C1(C#N)C#N (stereo unspecified)
  GIV Gai3 FP: 20*
N#CC1=C(N)C(C#N)(C#N)C(c2ccc(Cl)cc2)C2CN(Cc3ccccc3)CC=C12 (stereo unspecified)
  GIV Gai3 FP: -58*
CSC1=NC(=Nc2cccc(C)c2)C2(CCCCC2)N1c1cccc(C(F)(F)F)c1
  GIV Gai3 FP: 102
COc1ccc(C2=N/C(=C\C(Cl)=C\c3ccccc3)C(=O)O2)c(Br)c1
  GIV Gai3 FP: 106
CC(Oc1ccccc1F)C(=O)N(C)Cc1ccccc1 (stereo unspecified)
  GIV Gai3 FP: 103

CCc1cccc(NC(=O)CSCCc2ccccn2)c1
  GIV Gai3 FP: 100
CC(C)(C)C(=O)NCCSc1nnnn1-c1ccccc1
  GIV Gai3 FP: 104
COc1ccccc1OC(C)C(=O)N(Cc1ccc(Cl)cc1)Cc1ccco1 (stereo unspecified)
  GIV Gai3 FP: 103
O=C(NC1CCCC1)c1cccc2c1C(=O)N(C1CCCCC1)C2
  GIV Gai3 FP: 100
CCN(Cc1ccccc1)c1ccc(NC(=O)c2ccccc2C)cc1C(=O)O
  GIV Gai3 FP: 106
Cc1csc(NC(=O)C(C)NS(=O)(=O)c2cc(-c3noc(C4CC4)n3)ccc2C)n1 (stereo unspecified)
  GIV Gai3 FP: 98
Cc1ccc2cc3cc(C(=O)N4CCCC4)sc3nc2c1
  GIV Gai3 FP: 107
Fc1ccc(Cc2nn[nH]n2)c(Cl)c1
  GIV Gai3 FP: 103
CCOc1ccc(NC(=O)Nc2cccc(OCc3cc(=O)n4cc(Cl)ccc4n3)c2)cc1
  GIV Gai3 FP: 107
Cc1ccn2c(=O)cc(COc3ccc(NC(=O)Nc4cccc(Cl)c4)cc3)nc2c1
  GIV Gai3 FP: 108
Cc1ccc2nc(COc3ccc(NC(=O)Nc4ccc(Cl)cc4)cc3)cc(=O)n2c1
  GIV Gai3 FP: 85*
CCCS(=O)(=O)c1nc2ccc(NS(=O)(=O)c3ccc(F)cc3F)cc2s1
  GIV Gai3 FP: 100
CCOC(=O)COc1ccc(F)cc1C(=O)c1ccn2nc(-c3ccccc3)cc2n1
  GIV Gai3 FP: 95
O=c1cc(C(F)(F)F)c2cc(Cl)c(O)cc2o1
  GIV Gai3 FP: -94*
O=c1oc2cc(O)c(Cl)cc2c2ccccc12
  GIV Gai3 FP: 102

COc1ccc(-c2cc(=O)oc3cc(O)c(Cl)cc23)cc1
  GIV Gai3 FP: 101
CC(C)NS(=O)(=O)c1ccc2c(c1)C(C)(C)CN2CC(=O)N1CCCC1
  GIV Gai3 FP: 107
Nc1c(C(=O)N2CCOCC2)sc2nc(-c3cccs3)cc(C(F)(F)F)c12
  GIV Gai3 FP: 108
COc1ccc(NC(=O)c2sc3nc(-c4ccc(OC)cc4)cc(C(F)(F)F)c3c2N)cc1
  GIV Gai3 FP: 96
Nc1c(C(=O)Nc2ccc(F)cc2)sc2nc(-c3cccs3)cc(C(F)(F)F)c12
  GIV Gai3 FP: -12*
O=C(O)c1ccc(NC(=O)c2ccc3c(c2)C(=O)N(Cc2ccco2)C3=O)cc1
  GIV Gai3 FP: 96
CC(c1ccccc1)N1C(=O)/C(=C\c2c(N3CCN(CCO)CC3)nc3ccccn3c2=O)SC1=S (stereo unspecified)
  GIV Gai3 FP: 170
Cc1cccn2c(=O)c(/C=C3\SC(=S)N(Cc4ccccc4)C3=O)c(N3CCN(C)CC3)nc12
  GIV Gai3 FP: 122
CCN1CCN(c2nc3ccccn3c(=O)c2/C=C2\SC(=S)N(CC)C2=O)CC1
  GIV Gai3 FP: 289
CN1CCN(c2nc3ccccn3c(=O)c2/C=C2\SC(=S)N(CCc3ccccc3)C2=O)CC1
  GIV Gai3 FP: 189
COc1ccc(CCN2C(=O)/C(=C/c3c(N4CCCCC4)nc4ccccn4c3=O)SC2=S)cc1OC
  GIV Gai3 FP: 137
Cc1cccn2c(=O)c(/C=C3\SC(=S)N(CC4CCCO4)C3=O)c(N3CCN(C)CC3)nc12 (stereo unspecified)
  GIV Gai3 FP: -30*
O=C1/C(=C\c2c(N3CCN(CCO)CC3)nc3ccccn3c2=O)SC(=S)N1CC1CCCO1 (stereo unspecified)
  GIV Gai3 FP: 25*
COCCCN1C(=O)/C(=C/c2c(N3CCN(CCO)CC3)nc3ccccn3c2=O)SC1=S
  GIV Gai3 FP: 23*
CC1CCN(c2nc3ccccn3c(=O)c2/C=C2/SC(=S)N(CC3CCCO3)C2=O)CC1 (stereo unspecified)
  GIV Gai3 FP: 160

O=C1/C(=C\c2cccs2)SC(=S)N1CC1CCCO1 (stereo unspecified)
  GIV Gai3 FP: 99
Cc1ccc2nc(N3CCCCC3)c(/C=C3\SC(=S)N(CC4CCCO4)C3=O)c(=O)n2c1 (stereo unspecified)
  GIV Gai3 FP: 114
COCCN1C(=O)/C(=C/c2c(N3CCN(CCO)CC3)nc3ccccn3c2=O)SC1=S
  GIV Gai3 FP: -29*
CCOC(=O)C1CCCN(C(=O)c2sc3nc(C)nc(N4CCN(c5ccccn5)CC4)c3c2C)C1 (stereo unspecified)
  GIV Gai3 FP: 102
OC(C#CCN1CCCC1)(c1ccccc1)C1CCCC1 (stereo unspecified)
  GIV Gai3 FP: 101
CCCCN(CC)c1ccc2nnc(CCc3nc(-c4ccc(Cl)cc4)no3)n2n1
  GIV Gai3 FP: 102
Cc1ccc(N2C(=O)C3C(C2=O)C2(C4OCCO4)C=CC3(C)O2)cc1 (stereo unspecified)
  GIV Gai3 FP: 106
Cc1ccc(-n2nc(C(=O)N3CCN(c4ncccn4)CC3)c3ncn(C)c(=O)c32)cc1
  GIV Gai3 FP: 105

Screening results deposited in PubChem BioAssay by ICCB-Longwood Screening Facility, Harvard Medical School.
